Experimental data: PubChem BioAssay AID1893 (NMMLSC, 2009)
Only a part is listed here, and it is no random draw. The source made the active and inactive calls. No stated cut-off is given here; in the data, active means percent response mostly above about 71% (no sharp cut-off); inactive means mostly below about 38%.

What follows are compounds tested on MEKK2 (MAP3K2) mutant PB1 domain binding MEK5, human (assay: mutant MEKK2 PB1-MEK5 binding signal retest – biochemical, single concentration, multiplex bead flow cytometry, confirmation (AID 1893;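 further: higher means compound restores mutant binding toward wildtype level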)). Conditions: Alexa488-MEK5 binding to MEKK2 mutant, at 10 µM, active compounds read high.
For `CCN(CC)CCCOC(=O)C(O)(c1ccccc1)C1CCCCC1` (stereo not drawn), the percent response was inactive: 2%. For `CP(=O)(Nc1ccc(Cl)cc1)Oc1ccc(F)cc1` (stereo not drawn), the percent response was inactive: 8%. `COc1ccccc1OP(C)(=O)Nc1c(C)cccc1C` (stereo not drawn) was tested, and the percent response was inactive: 6%.
